## Apparent affinities of Ab-14 variants for a coronavirus HR2 peptide

The target is the same throughout: PDVDLGDISGINAS, from the HR2 region of SARS-CoV-2 spike.

Ab-14 is the parent antibody, in scFv form: VH, then a 15-residue (Gly4Ser)3 linker, then VL. The heavy chain is unchanged in all variants.
VH: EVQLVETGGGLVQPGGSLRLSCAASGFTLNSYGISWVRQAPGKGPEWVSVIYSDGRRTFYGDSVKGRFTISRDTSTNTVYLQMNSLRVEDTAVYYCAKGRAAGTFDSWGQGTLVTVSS
VL: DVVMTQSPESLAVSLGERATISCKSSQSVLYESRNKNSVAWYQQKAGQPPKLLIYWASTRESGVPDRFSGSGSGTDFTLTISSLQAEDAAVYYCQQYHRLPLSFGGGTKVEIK

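These sequences belong to a second round, designed from the earlier measurements on random variants of the parent. Several design methods are mixed in this list. The assay is AlphaSeq: two haploid yeast populations carry antibody and antigen on their surface. The frequency of each diploid, read from paired DNA barcodes, reflects how well the two displayed proteins bind. Each replicate has its own calibration line, from reference interactions of the BCL2 family. Each pool was mated in six replicate cultures.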

Variants are written as CDR1, CDR2 and CDR3 of the light chain (limits as in the source). Parent: KSSQSVLYESRNKNSVA, WASTRES, QQYHRLPLS. Each Kd is an estimate from the mating assay, the geometric mean of the replicates in which the pair was seen; lower is stronger. "nd" marks a missing value. The strain was present, yet no cells mated with the target were sequenced in any replicate, which points to weak or no binding. Three control strains display no target. For all light chain designs, 4% of the pairings with them gave a signal, with a median of 430 nM and one signal in twenty below 38 nM, so weak values seen in few replicates may be background.

CDR-L1 | CDR-L2 | CDR-L3 | apparent Kd | replicates with signal
MFSQMTGLGMKAQNSVA | QASTRFE | QQYHRLPLI | 2.2 nM | 6/6
KSSQSVLYESGNKNPVA | WASTRES | QQYHRLPLS | 710 nM | 2/6
KITGMWTFESRNKNSIA | EESTRAD | QSYHRLPLS | 3.0 nM | 6/6
KIGHGVTGTSRKGNSVA | QAETRVD | QQYHRLPLM | 1.4 nM | 6/6
KLSLMLNDMDARMWNVA | EGNQLKA | QDYHRLPLH | 37 nM | 6/6
KFSQWVPYESRTKNSVA | NASTRES | QQYHRLPLS | 12 nM | 6/6
KLRQSTLYESRNKNSVA | LASTRES | QQYHRLPLS | 9.1 nM | 5/6
KSSQLVLYETRNKNSVA | WASTRES | QQYHRLPLS | nd | 0/6
KFEQSQLYESRNKNSVA | NASTRCS | QQYHRLPLS | 770 pM | 6/6
HIGLSAMLESTVRNSVA | NNSTRES | QQYDRLPLS | 700 nM | 6/6
KLSQSTLYDSMNKNSVA | WASTRES | QQYKRLPLS | 2.6 nM | 6/6
KLSQQWEYESRNHNNVA | AASTRED | QQYHRLPLS | 850 pM | 6/6
KSSQSELYESRNKNSVA | EASTRCS | QQYHRLPLS | 430 pM | 6/6
KFSISVLYESRGKNSVA | WASTRES | QIYHILPHS | nd | 0/6
KIGGTLNTLMHQKNNVA | DLVMREM | QQYHRLPLS | 2.6 nM | 6/6
KFSQAVNSMSVSKSAVA | EMSTRPE | QQYNRLPLA | nd | 0/6
ALREDFYQEQVEHSAIA | DGEHLNN | QQYSMLPLS | 3.7 nM | 6/6
SMQSDQIEGNQQQNSIA | GESITDM | QHYERLPLT | 67 nM | 1/6
HWQPSVLYESRNKNSVA | NASTRES | QQYHRLPLS | 550 pM | 6/6
KLSQSKLYESRNKNSVA | DASTRES | QQYHRLPLS | 620 pM | 6/6
SVFMELAEEKNSYRNIA | DASMRLA | QQYVRLPLG | 2.1 nM | 6/6
KFSQMANSMSVSHSAVA | EMSTREN | QQYNRLPLA | 2.8 nM | 6/6
KLSQSYLYGSRNKNSVA | NASTRES | QQYHRLPLS | 630 pM | 6/6
KMSQSKLYESRNKNSVA | WASTRES | QQVHWYPLS | nd | 0/6
KSSGSVLYEDKNVNSVA | NASQRLS | QQYHRLPLS | 1.2 nM | 6/6

The remaining entries, values ahead:

apparent Kd | replicates with signal | CDR-L1 | CDR-L2 | CDR-L3
600 pM | 6/6 | KLSMSVLYESRNKNNVA | DASTRES | QQYHRLPLS
670 pM | 6/6 | KMSQSHLYESRNKNSVA | NASTRET | QQYHRLPLS
23 nM | 6/6 | KSSQSGLYESRNDNSVA | EASTRES | QAYHRLPLS
2.4 nM | 6/6 | KLSQSVDYESRNKNNVA | DASTRES | QQYHRLPLS
22 nM | 6/6 | KQSESVLYESRNSNSVA | WASTRES | QQYHRLPLS
21 nM | 6/6 | KLSSHYFESYGERQAVA | ENEATMN | QQYHLLPLS
690 pM | 6/6 | KCSQSWLYESRNKNSVA | NASQRES | QQYHRLPLS
11 nM | 6/6 | KSLMSVLYESRNKNSVA | EASTRED | QQYHQLPLS
250 nM | 2/6 | KLRQVTEWESFDKNSVA | QTETREN | QDYDRLPLS
5.2 nM | 6/6 | KMSQEVDLESRNVNSVA | MASTREM | QQYHRLPLS
9.8 nM | 6/6 | KISSLTMYESVQKNNIA | EMTTRPE | QSYHRLPLS
1.9 nM | 6/6 | KSSQSVLYESGNKNSVA | GASTRES | QQYHRLPLS
9.1 nM | 6/6 | HISYSMQHLSKNKNSVA | NQQTREA | QQYHRLPLS
480 pM | 6/6 | KFSQSFLYESRNKNSVA | GASTRES | QQYHRLPLS
100 nM | 2/6 | KSSLSVEEESRNKNSVA | WAMTRES | QQYHRLPLE
5.5 nM | 6/6 | MMSMGSLGGMRAKNNVA | QEETREK | QQYHRLPLI
420 pM | 6/6 | FLSQSDLYESRNKNSVA | NASTRES | QQYHRLPLS
820 pM | 6/6 | KLEQSEPYESRNKNSVA | NASTRES | QQYHRLPLS
12 nM | 6/6 | MMSQVQGQGTRHRNNVA | QTSTREP | QQYDHLPLI
49 nM | 6/6 | TIGQTLMQGIRNRSNVA | EVSQRLN | QQYDRLPLE
680 pM | 6/6 | KLSQSQLYESRNKNSVA | NASQRCS | QQYHRLPLS
18 nM | 6/6 | KLSWDDMSHFNTRSAIA | DMTMRAF | QQYNRLPLD
8.9 µM | 2/6 | KIYQMTGFQSRNADSIA | DNSTRGR | QQYHRLPLS
12 nM | 6/6 | TLMEVGGYSLNQHNSIA | DLRTREN | QQYHRLPLS
1.5 nM | 6/6 | HLSWSVLYESRNKNSVA | NASTRES | QQYHRLPLN
nd | 0/6 | NLQYLEENSLIGASAIA | DVSIAVM | QQYHRLPLA

Extract of 6 entries:

CDR-L1	CDR-L2	CDR-L3	apparent Kd	replicates with signal
KSSQSGLYESRNDNSVA	EASTRES	QAYHRLPLS	23 nM	6/6
KSSQSVLYESGNKNPVA	WASTRES	QQYHRLPLS	710 nM	2/6
ALREDFYQEQVEHSAIA	DGEHLNN	QQYSMLPLS	3.7 nM	6/6
HWQPSVLYESRNKNSVA	NASTRES	QQYHRLPLS	550 pM	6/6
FLSQSDLYESRNKNSVA	NASTRES	QQYHRLPLS	420 pM	6/6
KCSQSWLYESRNKNSVA	NASQRES	QQYHRLPLS	690 pM	6/6

The authors' rule: three or more of the six replicates give a measured affinity, fewer mean a poor binder. Values of this round are not directly comparable with the first-round values of the same sequences.

Data: MIT Lincoln Laboratory AlphaSeq set, Li et al. 2023, doi:10.1038/s41467-023-39022-2, as distributed in FLAb.